Assay [1] deals with KOR (κ opioid receptor) (Homo sapiens, UniProt P41145). Briefly: KOR radioligand binding ([3H]-U69593, HEK293 cell homogenates). As to conditions: Percent inhibition at 10,000 nM. The procedure:
(§1) Radioligand binding assays. Detailed protocols for the primary and secondary radioligand binding assays can be found in the National Institute of Mental Health's Psychoactive Drug Screening Program (NIMH PDSP) Assay Protocol Book (Roth, 2018). Briefly, primary and secondary radioligand binding assays are carried out in a final of volume of 125 μL per well in appropriate binding buffer. The radioactive ligand concentration is close to the Kd ([^3H]-U69593 0.83 nM, [^3H]-DAMGO 1.20 nM, and [^3H]-DADLE 2.69 nM). Total binding and nonspecific binding are determined in the absence and presence of 10 μM of appropriate reference compound (Naltrindole DOR, Salvinorin A KOR and DAMGO MOR). […] Scintillation cocktail is then melted onto the microwave-dried filters on a hot plate and radioactivity counted in a Microbeta counter. The data (n=6) were analyzed by nonlinear regression.
(§2) Ligand affinities were determined for KOR (κ opioid receptor), DOR (δ opioid receptor), and MOR (μ opioid receptor) using radioligand binding assays at a screening concentration of 10,000 nM. […] Gamma aminobutyric acid type A receptor (GABAAR) binding was determined with rat brain homogenate and ^3H-flunitrazepam. […]
(§3) Psychoactive Drug Screening Program. […] Total binding and nonspecific binding are determined in the absence and presence of 10 μM of appropriate reference compound, respectively. […]

Amino acid sequences for entries named in this document (tags omitted).
UniProt P41145, whole entry: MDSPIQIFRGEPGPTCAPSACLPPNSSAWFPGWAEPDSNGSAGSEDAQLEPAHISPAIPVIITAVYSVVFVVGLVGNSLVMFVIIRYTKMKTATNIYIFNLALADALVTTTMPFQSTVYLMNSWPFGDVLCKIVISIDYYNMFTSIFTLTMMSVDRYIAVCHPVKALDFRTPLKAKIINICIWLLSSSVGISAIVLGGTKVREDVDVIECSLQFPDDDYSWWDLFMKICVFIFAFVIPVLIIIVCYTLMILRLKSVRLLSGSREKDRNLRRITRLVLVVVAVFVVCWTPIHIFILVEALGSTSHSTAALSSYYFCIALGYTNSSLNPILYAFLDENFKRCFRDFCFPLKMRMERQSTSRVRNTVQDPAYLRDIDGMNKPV
UniProt P35372, whole entry: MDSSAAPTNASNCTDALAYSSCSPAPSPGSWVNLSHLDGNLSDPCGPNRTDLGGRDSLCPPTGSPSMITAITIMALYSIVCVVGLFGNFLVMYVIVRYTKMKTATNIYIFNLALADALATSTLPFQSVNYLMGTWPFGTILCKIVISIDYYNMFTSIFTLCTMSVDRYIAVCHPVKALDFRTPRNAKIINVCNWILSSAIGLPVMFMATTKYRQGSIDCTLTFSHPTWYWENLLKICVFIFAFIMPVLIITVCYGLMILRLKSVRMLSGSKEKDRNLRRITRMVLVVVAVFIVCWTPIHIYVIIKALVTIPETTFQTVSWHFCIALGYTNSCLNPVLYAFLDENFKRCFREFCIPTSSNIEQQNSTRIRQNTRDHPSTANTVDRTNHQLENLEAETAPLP

Assay [2] concerns the target DOR (δ opioid receptor) (Homo sapiens, UniProt P41143). Briefly: DOR radioligand binding ([3H]-DADLE, HEK293 cell homogenates). Conditions: Percent inhibition at 10,000 nM. As for the experimental part:
as §1, §2, §3

For assay [3], the system named is BZR (benzodiazepine site of GABAAR). Briefly: GABAAR/BZR binding, rat brain homogenate with 3H-flunitrazepam. The procedure: Ligand affinities were determined for KOR (κ opioid receptor), DOR (δ opioid receptor), and MOR (μ opioid receptor) using radioligand binding assays at a screening concentration of 10,000 nM. For these assays, cell homogenates from HEK293 cells that overexpressed KOR, MOR, and DOR were used in combination with [^3H]-U69593, [^3H]-DAMGO, and [^3H]-DADLE, respectively Compounds that exceeded more than 50% radioligand displacement were investigated further in concentration-dependent experiments to determine Ki values. Gamma aminobutyric acid type A receptor (GABAAR) binding was determined with rat brain homogenate and ^3H-flunitrazepam. Flunitrazepam binds GABAAR subtypes that consists of two α and two β subunits and one γ or δ subunit. Strong affinities to α1-3,5,6β1-3γ1-y/δ GABAARS have been reported for flunitrazepam. The […] GABAAR subtype expression in the brain includes 43% α1β2γ2, 15% α2β3γ2+8% α2βγ1, 10% α3β3γ2, 6% α4βγ/δ, 4% α5β3γ2, and 4% α6β2γ2/δ. […]
Psychoactive Drug Screening Program. […] Total binding and nonspecific binding are determined in the absence and presence of 10 μM of appropriate reference compound, respectively. […] Scintillation cocktail is then melted onto the microwave-dried filters on a hot plate and radioactivity counted in a Microbeta counter. The data (n=6) were analyzed by nonlinear regression.

The target in assay [4] is MOR (μ opioid receptor) (Homo sapiens, UniProt P35372). Briefly: MOR radioligand binding ([3H]-DAMGO, HEK293 cell homogenates). As to conditions: Percent inhibition at 10,000 nM. The procedure: as §1, §2, §3

SMILES strings stand for the structures.

The Ki is the dissociation constant of the complex between target and ligand, obtained from inhibition or displacement. On to `C#Cc1ccc2c(c1)C(c1ccccc1F)=NCc1c(C(=O)OCc3ccccc3)ncn1-2`, for which the KOR % in assay [1] is 84%. In addition, in assay [2], the DOR % was 16%. Moreover, the BZR % in assay [3] (Percent inhibition at 10,000 nM) was 98%. Besides, the Ki in assay [3] (read-out: BZR (Ki)) worked out at 21 nM. Also, the MOR % in assay [4] worked out at 0%.

The values above are taken from patent US20240279232A1, “USE OF SUBSTITUTED 5-(4-METHYL-6-PHENYL-4H-BENZO[F]IMIDAZO[1,5-A][1,4] DIAZEPIN-3-YL)-1,2,4-OXADIAZOLES IN THE TREATMENT OF INFLAMMATORY CONDITIONS” (priority 2021, published 2024).
